The text below walks through data of ChEMBL document CHEMBL5375952, “Discovery of Novel 8-Hydroxyquinoline Derivatives with Potent In Vitro and In Vivo Antifungal Activity” (J Med Chem, 2023).

The chains behind the UniProt entries cited, without tags or fusion partners. Where a name states a change or a piece, a line headed by the entry shows the natural chain unless it says otherwise.
UniProt Q12809: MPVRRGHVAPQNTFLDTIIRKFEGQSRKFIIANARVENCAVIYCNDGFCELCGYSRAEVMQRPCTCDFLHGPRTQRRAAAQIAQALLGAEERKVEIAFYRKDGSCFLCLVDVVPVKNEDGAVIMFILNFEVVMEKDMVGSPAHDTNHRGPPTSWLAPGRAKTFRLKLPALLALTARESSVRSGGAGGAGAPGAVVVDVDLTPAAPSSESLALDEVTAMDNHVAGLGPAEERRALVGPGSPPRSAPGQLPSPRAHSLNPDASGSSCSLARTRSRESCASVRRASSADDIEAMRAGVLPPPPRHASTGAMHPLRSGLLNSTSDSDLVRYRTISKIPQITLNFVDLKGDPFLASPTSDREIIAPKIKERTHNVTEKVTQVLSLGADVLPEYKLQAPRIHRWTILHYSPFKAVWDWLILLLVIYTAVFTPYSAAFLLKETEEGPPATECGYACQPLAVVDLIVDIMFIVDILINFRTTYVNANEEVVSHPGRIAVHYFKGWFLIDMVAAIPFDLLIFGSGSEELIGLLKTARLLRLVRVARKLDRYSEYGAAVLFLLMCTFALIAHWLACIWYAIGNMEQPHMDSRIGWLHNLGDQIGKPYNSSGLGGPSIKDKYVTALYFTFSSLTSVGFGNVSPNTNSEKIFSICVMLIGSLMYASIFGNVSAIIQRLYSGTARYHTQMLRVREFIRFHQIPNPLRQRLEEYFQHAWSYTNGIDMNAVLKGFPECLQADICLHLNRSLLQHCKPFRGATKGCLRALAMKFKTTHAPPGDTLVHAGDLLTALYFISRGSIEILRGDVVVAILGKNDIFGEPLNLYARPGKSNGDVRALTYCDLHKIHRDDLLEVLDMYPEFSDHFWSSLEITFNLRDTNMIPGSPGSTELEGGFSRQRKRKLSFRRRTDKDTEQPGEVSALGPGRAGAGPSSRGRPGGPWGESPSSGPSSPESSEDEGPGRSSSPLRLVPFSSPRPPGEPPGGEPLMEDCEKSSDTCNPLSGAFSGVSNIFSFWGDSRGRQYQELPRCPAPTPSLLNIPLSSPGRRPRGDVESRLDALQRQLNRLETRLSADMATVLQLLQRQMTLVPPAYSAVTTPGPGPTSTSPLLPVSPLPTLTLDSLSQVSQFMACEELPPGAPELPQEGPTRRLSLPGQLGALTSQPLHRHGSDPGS

This series has as its target Voltage-gated inwardly rectifying potassium channel KCNH2 (Homo sapiens, UniProt Q12809). Briefly: Inhibition of hERG measured for 120 secs by electrophysiological method. Format: toxicity. Conditions: 2 min, time 120 sec. Background: Block of hERG is tested as a sign of cardiac risk.

Compound `COc1cc(N)c(Cl)cc1C(=O)NC1CCN(CCCOc2ccc(F)cc2)CC1OC` (stereo unspecified) [CISAPRIDE] gave an INH of 0.015 µM.
